This note sets out measurements from article PMC7072677, “Arachidonoylcholine and Other Unsaturated Long-Chain Acylcholines Are Endogenous Modulators of the Acetylcholine Signaling System” (Biomolecules, 2020).

Sequences of proteins named here, by UniProt entry; tags and fusion partners are left off. A change or cut given only in a name is not applied to a line headed by its entry. Residues count along the entry.
UniProt P58154, 20-229 limits assumed: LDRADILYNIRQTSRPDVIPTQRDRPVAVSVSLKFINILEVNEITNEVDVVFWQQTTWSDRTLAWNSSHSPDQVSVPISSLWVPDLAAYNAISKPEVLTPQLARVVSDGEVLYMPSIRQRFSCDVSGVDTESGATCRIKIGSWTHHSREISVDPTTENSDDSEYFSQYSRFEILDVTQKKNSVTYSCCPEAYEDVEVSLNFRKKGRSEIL
UniProt P02710: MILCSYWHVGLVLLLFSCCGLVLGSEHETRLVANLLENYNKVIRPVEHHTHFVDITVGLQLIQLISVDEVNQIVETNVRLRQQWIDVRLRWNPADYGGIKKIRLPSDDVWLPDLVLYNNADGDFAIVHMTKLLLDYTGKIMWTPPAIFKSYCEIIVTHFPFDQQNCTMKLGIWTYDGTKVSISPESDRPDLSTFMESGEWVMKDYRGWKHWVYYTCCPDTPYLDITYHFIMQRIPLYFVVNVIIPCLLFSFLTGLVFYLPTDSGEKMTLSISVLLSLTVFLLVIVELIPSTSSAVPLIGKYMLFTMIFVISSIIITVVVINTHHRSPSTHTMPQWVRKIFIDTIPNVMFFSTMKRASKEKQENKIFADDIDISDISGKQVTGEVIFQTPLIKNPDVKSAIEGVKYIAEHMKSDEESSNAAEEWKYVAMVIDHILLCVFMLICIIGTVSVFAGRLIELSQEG
UniProt P02714: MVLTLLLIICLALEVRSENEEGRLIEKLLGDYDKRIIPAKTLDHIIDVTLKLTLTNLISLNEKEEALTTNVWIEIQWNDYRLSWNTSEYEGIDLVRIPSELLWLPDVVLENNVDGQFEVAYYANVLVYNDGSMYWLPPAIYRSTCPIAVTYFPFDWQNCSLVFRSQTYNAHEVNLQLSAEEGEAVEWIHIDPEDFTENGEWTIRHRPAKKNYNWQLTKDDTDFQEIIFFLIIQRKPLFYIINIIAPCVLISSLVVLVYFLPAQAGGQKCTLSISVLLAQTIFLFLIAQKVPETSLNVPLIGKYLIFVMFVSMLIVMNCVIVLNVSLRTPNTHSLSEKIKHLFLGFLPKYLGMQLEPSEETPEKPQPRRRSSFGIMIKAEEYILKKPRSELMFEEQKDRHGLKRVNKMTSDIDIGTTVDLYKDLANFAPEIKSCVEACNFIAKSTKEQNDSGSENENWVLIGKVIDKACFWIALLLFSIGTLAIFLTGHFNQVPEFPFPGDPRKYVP
UniProt P02718: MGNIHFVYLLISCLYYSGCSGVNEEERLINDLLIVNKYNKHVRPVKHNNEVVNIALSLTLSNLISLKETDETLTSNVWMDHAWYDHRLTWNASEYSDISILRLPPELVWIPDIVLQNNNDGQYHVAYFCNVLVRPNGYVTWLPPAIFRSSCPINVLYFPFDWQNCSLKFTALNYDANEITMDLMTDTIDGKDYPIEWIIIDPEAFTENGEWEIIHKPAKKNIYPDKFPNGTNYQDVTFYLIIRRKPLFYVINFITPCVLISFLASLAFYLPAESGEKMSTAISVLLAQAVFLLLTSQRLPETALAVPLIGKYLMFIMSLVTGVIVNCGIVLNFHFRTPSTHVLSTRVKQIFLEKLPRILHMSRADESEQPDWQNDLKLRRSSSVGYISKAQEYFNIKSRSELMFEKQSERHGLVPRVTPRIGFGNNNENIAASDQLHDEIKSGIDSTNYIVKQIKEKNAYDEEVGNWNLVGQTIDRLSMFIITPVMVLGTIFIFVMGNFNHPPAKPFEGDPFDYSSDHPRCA
UniProt P36544, 23-502 limits assumed: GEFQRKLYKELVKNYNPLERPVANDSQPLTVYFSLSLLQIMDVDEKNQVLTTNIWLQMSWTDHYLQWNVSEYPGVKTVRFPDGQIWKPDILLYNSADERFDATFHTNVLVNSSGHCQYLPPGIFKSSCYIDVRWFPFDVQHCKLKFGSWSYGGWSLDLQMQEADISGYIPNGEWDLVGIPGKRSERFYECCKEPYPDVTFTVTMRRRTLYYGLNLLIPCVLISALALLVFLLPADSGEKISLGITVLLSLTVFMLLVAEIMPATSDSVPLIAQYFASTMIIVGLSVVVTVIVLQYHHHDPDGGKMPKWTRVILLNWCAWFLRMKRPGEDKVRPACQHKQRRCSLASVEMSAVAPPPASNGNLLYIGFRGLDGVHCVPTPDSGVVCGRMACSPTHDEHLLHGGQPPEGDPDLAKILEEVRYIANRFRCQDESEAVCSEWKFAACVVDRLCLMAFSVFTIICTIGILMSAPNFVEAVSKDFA

One test deals with L. stagnalis AChBP (Lymnaea stagnalis, UniProt P58154). Put plainly: 125I-αBgt radioligand competition assay, AChBP. As to conditions: read-out: IC50, μM (95% CI) L. stagnalis AChBP; competition with 125I-αBgt. For orientation: Displacement assays read how much labelled ligand stays bound in the presence of the test substance.
For a further test, the target named is T. californica nAChR (Tetronarce californica, UniProt P02710+P02714+P02718). Put plainly: 125I-αBgt radioligand competition assay, Torpedo membranes. The conditions noted are these: for IC50: read-out: IC50, μM (95% CI) T. californica nAChR, competition with 125I-αBgt, Torpedo membranes; for effect on 125I-αBgt binding to Torpedo membranes: 40 μM.
The target of the next test is α7 nAChR (Homo sapiens, UniProt P36544). As to the kind of experiment: 125I-αBgt radioligand competition assay, α7 nAChR-transfected GH4C1 cells. The conditions noted are these: for IC50: read-out: IC50, μM (95% CI) human α7 nAChR, competition with 125I-αBgt, GH4C1 cells; for effect on 125I-αBgt binding to GH4C1 cells: 40 μM.
[1] abbreviates: listed as sodium dodecyl sulfate.

Broadly, the IC50 is the concentration at which inhibition is half-maximal. Turning to `CC/C=C\C/C=C\C/C=C\C/C=C\C/C=C\C/C=C\CCC(=O)OCC[N+](C)(C)C` [DHA-CHOL, docosahexaenoylcholine], the 50% inhibitory concentration (IC50) was found to be 25.1 µM at L. stagnalis AChBP, 93 µM on T. californica nAChR and 80 µM on α7 nAChR. Moreover, the “activity in competition experiments on T. californica nAChR” value on T. californica nAChR was “virtually inactive”. On α7 nAChR, the “activity in competition experiments on α7 nAChR” value is “virtually inactive”.
On to `CCCCC/C=C\C/C=C\C/C=C\C/C=C\CCCC(=O)OCC[N+](C)(C)C` [AA-CHOL, Arachidonoylcholine], for which the results for the IC50 at L. stagnalis AChBP, at T. californica nAChR and at α7 nAChR were 21.3 µM, 47.6 µM and 35.9 µM, respectively.
For `CCCCCCCC/C=C\CCCCCCCC(=O)OCC[N+](C)(C)C` [Ol-CHOL], the figures for the IC50 at L. stagnalis AChBP and at T. californica nAChR were 13.4 µM and 39.8 µM, respectively.
For sodium dodecyl sulfate, the “effect on 125I-αBgt binding to Torpedo membranes” value on T. californica nAChR was “did not differ from the control values”; on T. californica nAChR (setting [1]) it was “did not inhibit α-bungarotoxin binding”. Also, the “effect on 125I-αBgt binding to GH4C1 cells” value at α7 nAChR was “did not differ from the control values”; on α7 nAChR (setting [1]), “did not inhibit α-bungarotoxin binding”.
As for `CCCCC/C=C\C/C=C\CCCCCCCC(=O)OCC[N+](C)(C)C` [Ln-CHOL], the IC50 worked out at 2.3 µM at L. stagnalis AChBP, 18.7 µM on T. californica nAChR and 23.1 µM on α7 nAChR.
